Measured values published in PubChem BioAssay AID743247 (Broad Institute, 2014).
The entries are a selection whose mix differs from that of the whole data set. Active and inactive are the calls of the source.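 Rule for the calls: active = mean inhibition across replicates of 30% or more, regardless of how many single replicates reach that level; inconclusive = mean under 30% yet at least half of replicates reach 30%; inactive = the rest.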

Assay: inhibitors of fibronectin matrix deposition, primary screen, AH1F cells, Alexa488-fibronectin fluorescence, plate reader (AID 743247);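 note: positive control wells lacked labelled fibronectin entirely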
Settings: AH1F fibroblasts, overnight, at 12.6 µM, active compounds read high
Summary of the method: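 Measured by – fluorescence 485/525 nm · System – AH1F fibroblast monolayer, labelled fibronectin deposition · Amount – 10000 cells per well · Buffer or medium – serum-reduced DMEM (2% serum) · Doses – single dose, pinned · Also added – fluorescent fibronectin at 24 nM final · Schedule – 1 h cell attachment, overnight exposure to compound and label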

Row | Structure (SMILES) | inhibition
1 | CC(C)(C)C(=O)NC(Sc1ccncn1)C(Cl)(Cl)Cl (stereo unspecified) | inactive: 13%
2 | O=[N+]([O-])c1ncn(CCn2ncnc2[N+](=O)[O-])n1 | inactive: 0.485%
3 | COC(=O)C1(C)COP(=O)(Nc2ccccc2)OC1 (stereo unspecified) | inactive: -3.31%
4 | O=[N+]([O-])c1cccc(NC2=NCC(CBr)S2)c1 (stereo unspecified) | inactive: -5.51%
5 | O=C(O)CNc1ccc([As](=O)(O)O)cc1 | inactive: 0.356%
6 | O=P1(N(CCCl)CCCl)OCCCS1 (stereo unspecified) | inactive: 8.15%
7 | O=C(Nc1cc([As](=O)(O)O)ccc1O)c1ccccc1 | inactive: 5.08%
8 | Nc1ccc([As](=O)(O)c2ccc(N)cc2)cc1 | inactive: 5.31%
9 | C[N+]1=C2C=CC=CC=C2SC12C([N+](=O)[O-])=CC([N+](=O)[O-])=C[C-]2[N+](=O)[O-] (stereo unspecified) | inactive: 11.6%
10 | CCN(/C(=N/P(=O)(N1CCOCC1)N1CCOCC1)N1CCOCC1)c1ccc(OC)cc1 | inactive: 9.78%
11 | CC(C)c1nc(Nc2ccccc2)n(P(=O)(N(C)C)N(C)C)n1 | inactive: 3.16%
12 | CC(C)=N/N=C(\N)N[N+](=O)[O-] | inactive: 2.64%
13 | c1cc(-c2nn[nH]n2)ccc1-c1nn[nH]n1 | inactive: -3.94%
14 | COc1ccc(C2=NCC(CBr)S2)cc1 (stereo unspecified) | inactive: 0.083%
15 | O=[N+]([O-])c1cccc2n[nH]nc12 | inactive: -5.27%
16 | Cc1ccc(NP(=O)(Oc2ccccc2)Oc2ccccc2)nc1 | inactive: 10.7%
17 | O=[N+]([O-])c1cc([N+](=O)[O-])c(CCNc2ccccc2)c([N+](=O)[O-])c1 | inactive: 5.26%
18 | Nc1cc(N)c2nonc2c1[N+](=O)[O-] | inactive: -9.94%
19 | CC(C)CC(=O)NC(Sc1ccc(Cl)cc1)C(Cl)(Cl)Cl (stereo unspecified) | inactive: -8.37%
20 | O=C(NC(Sc1ccncn1)C(Cl)(Cl)Cl)c1ccccc1 (stereo unspecified) | inactive: 0.192%
21 | NC(=O)c1cc([N+](=O)[O-])cc([N+](=O)[O-])c1N | inactive: 6.56%
22 | CN(C(=O)Cc1ccc(Cl)c(Cl)c1)[C@H]1CCCC[C@H]1N1CCCC1 | inactive: 7.9%

Row | Structure (SMILES) | inhibition
23 | Cc1ccc(N/C(=N/P(=O)(N2CCOCC2)N2CCOCC2)N2CCOCC2)cc1 | inactive: -0.743%
24 | Cc1ccc(OP(=O)(Nc2nccs2)Oc2ccc(C)cc2)cc1 | inactive: 2.49%
25 | Clc1ccc(Cl)c(NC2=NCC(CBr)S2)c1 (stereo unspecified) | inactive: -1.93%
26 | CCN(N=Nc1nonc1N)c1nonc1N | inactive: 1.57%
27 | Nc1cccc2ccc([As](=O)(O)O)cc12 | inactive: 13.8%
28 | CC(=O)Nc1ccc([As](=O)(O)O)cc1 | inactive: -5.61%
29 | O=C(O)c1ccccc1[As](=O)(O)O | inactive: 3.45%
30 | CCCC1OP(N)(=O)OCC1CC (stereo unspecified) | inactive: 10%
31 | O=P(Nc1nc2ccc(Cl)cc2s1)(c1ccccc1)c1ccccc1 | inactive: -11.5%
32 | Cc1cc(SC(NC(=O)c2ccc(F)cc2)C(Cl)(Cl)Cl)ncn1 (stereo unspecified) | inactive: -0.744%
33 | CN(C(=O)Cc1ccc(Cl)c(Cl)c1)[C@H]1CCCC[C@@H]1N1CCCC1 | inactive: -4.78%
34 | Cc1ccc(NP(=O)(Oc2ccccc2F)Oc2ccccc2F)nc1 | inactive: -3.54%
35 | Cc1ccc(OP(=O)(Nc2ccccn2)Oc2ccc(C)cc2)cc1 | inactive: -3.13%
36 | O=C(OC1CN2CCC1CC2)c1ccccc1 (stereo unspecified) | inactive: -2.79%
37 | CC(NC(=O)COC(=O)C(O)(c1ccccc1)c1ccccc1)c1ccccc1 (stereo unspecified) | inactive: -16.8%
38 | Cc1ccccc1OP(=O)(Nc1ccccn1)Oc1ccccc1C | inactive: 2.18%
39 | O=c1c2cc([N+](=O)[O-])ccc2[nH]c2c([N+](=O)[O-])cc([N+](=O)[O-])cc12 | inactive: 9.18%
40 | CN(C)C(=O)Oc1noc2ccccc12 | inactive: 1.7%
41 | O=C(NC1CCS(=O)(=O)C1)NP(=S)(Oc1ccccc1)Oc1ccccc1 (stereo unspecified) | inactive: -8.97%
42 | CCNC(=S)/N=C(\N)N[N+](=O)[O-] | inactive: -0.113%
43 | c1ccc(-c2nn[nH]n2)c(-c2nn[nH]n2)c1 | inactive: 5.11%
44 | Cc1ccc(NP(=O)(Oc2cccc(C)c2)Oc2cccc(C)c2)nc1 | inactive: -11.7%

Row | Structure (SMILES) | inhibition
45 | O=P1(N(CCCl)CCCl)OCCC2CCCCN21 (stereo unspecified) | inactive: -0.644%
46 | CC(=O)c1ccc(N2CC2c2ccncc2)cc1 (stereo unspecified) | inactive: 5.79%
47 | N#C/C(=C\c1ccc(N(CCBr)CCBr)cc1)C(N)=O | inactive: 5.59%
48 | COC(=O)C1(C)COP(=O)(NCc2ccccc2)OC1 (stereo unspecified) | inactive: -7.89%
49 | Cc1ccccc1CN(C)C(=O)COC(=O)C(O)(c1ccccc1)c1ccccc1 | inactive: 2.91%
50 | C[C@H]1OP(=O)(Oc2ccccc2)C[C@@H]2O[C@@H]21 (stereo partly specified) | inactive: 3.69%
51 | C[C@@H]1C=CCP(=O)(Oc2ccccc2)O1 (stereo partly specified) | inactive: -1.56%
52 | CC(=O)Nc1ccc([As](=O)(O)O)c(O)c1 | inactive: -1.35%
53 | CC(=O)Nc1ccc(Oc2c([N+](=O)[O-])cc([N+](=O)[O-])cc2[N+](=O)[O-])cc1 | inactive: 7.84%
54 | CCOc1ccc(C2=NCC(CBr)S2)cc1 (stereo unspecified) | inactive: 1.04%
55 | CCc1cc(O)c([N+](=O)[O-])c(C)c1[N+](=O)[O-] | inactive: 1.3%
56 | CC(C)C(=O)NC(Sc1ccccc1)C(Cl)(Cl)Cl (stereo unspecified) | inactive: 7.4%
57 | c1nnnn1CCn1cnnn1 | inactive: -17.9%
58 | O=[N+]([O-])c1ncn(CCn2cnc([N+](=O)[O-])n2)n1 | inactive: 1.42%
59 | CC(=O)NC(SC(=S)N(C)C)C(Cl)(Cl)Cl (stereo unspecified) | inactive: -11.4%
60 | O=[As](O)(c1ccccc1)c1ccc(O)cc1 | inactive: 3.16%
61 | C/C(N)=N\P(=O)(OCc1ccccc1)OCc1ccccc1 | inactive: -4.99%
62 | C(Cc1nn[nH]n1)Cc1nn[nH]n1 | inactive: -5.89%
63 | Nc1ccc([As](=O)(O)c2ccc([N+](=O)[O-])cc2)cc1 | inactive: 0.703%
64 | COc1ccc(N)c([N+](=O)[O-])c1[N+](=O)[O-] | inactive: 0.515%
65 | Nc1ccc(CCCCOc2ccccc2)cc1 | inactive: -5.57%
66 | CN(C)C1(CNC(=O)c2ccc(Cl)c(S(N)(=O)=O)c2)CCCCC1 | inactive: -1.99%
